The values below come from article PMC6172466 (EMBO Reports, 2018).

The experiment deals with T1, N-terminally TAMRA-labeled monoubiquitin (UniProt P0CG48 1-76, TAMRA on the N-terminus).
T1 construct: ubiquitin with a free C-terminus; also called TAMRA-monoubiquitin; ubiquitin labeled with an N-terminal fluorophore
The experiment in a line: fluorescence polarisation; equilibrium binding of USP4 to TAMRA-labelled ubiquitin species; as described in ref. 32. The settings on record: both partners purified. In general terms: Polarisation of emitted light reports the rotation of a fluorescent probe.

B1: USP4 (8-925) wild-type (enzyme, human, UniProt Q13107 8-925, looked up)
chain: RERPDAETQKSELGPLMRTTLQRGAQWYLIDSRWFKQWKKYVGFDSWDMYNVGEHNLFPGPIDNSGLFSDPESQTLKEHLIDELDYVLVPTEAWNKLLNWYGCVEGQQPIVRKVVEHGLFVKHCKVEVYLLELKLCENSDPTNVLSCHFSKADTIATIEKEMRKLFNIPAERETRLWNKYMSNTYEQLSKLDNTVQDAGLYQGQVLVIEPQNEDGTWPRQTLQSKSSTAPSRNFTTSPKSSASPYSSVSASLIANGDSTSTCGMHSSGVSRGGSGFSASYNCQEPPSSHIQPGLCGLGNLGNTCFMNSALQCLSNTAPLTDYFLKDEYEAEINRDNPLGMKGEIAEAYAELIKQMWSGRDAHVAPRMFKTQVGRFAPQFSGYQQQDSQELLAFLLDGLHEDLNRVKKKPYLELKDANGRPDAVVAKEAWENHRLRNDSVIVDTFHGLFKSTLVCPECAKVSVTFDPFCYLTLPLPLKKDRVMEVFLVPADPHCRPTQYRVTVPLMGAVSDLCEALSRLSGIAAENMVVADVYNHRFHKIFQMDEGLNHIMPRDDIFVYEVCSTSVDGSECVTLPVYFRERKSRPSSTSSASALYGQPLLLSVPKHKLTLESLYQAVCDRISRYVKQPLPDEFGSSPLEPGACNGSRNSCEGEDEEEMEHQEEGKEQLSETEGSGEDEPGNDPSETTQKKIKGQPCPKRLFTFSLVNSYGTADINSLAADGKLLKLNSRSTLAMDWDSETRRLYYDEQESEAYEKHVSMLQPQKKKKTTVALRDCIELFTTMETLGEHDPWYCPNCKKHQQATKKFDLWSLPKILVVHLKRFSYNRYWRDKLDTVVEFPIRGLNMSEFVCNLSARPYVYDLIAVSNHYGAMGVGHYTAYAKNKLNGKWYYFDDSNVSLASEDQIVTKAAYVLFYQRRDD
notes: human USP4, residues 8-925; also called USP4 WT; the wild-type enzyme
Usually Kd stands for the free concentration of one partner at which half of the binding sites on the other are occupied at equilibrium, for simple one-to-one binding. A lower Kd goes with higher affinity. B1 yielded a Kd of 92 ± 21 nM.
